Earlier results, collected in PMC6008299, “Impact of race on dose selection of molecular-targeted agents in early-phase oncology trials” (British Journal of Cancer, 2018).

Key:
[1] = at the MTD, ref not given, cited from earlier work
[2] = Asian, at the MTD, Day 1; ref not given; cited from earlier work

## CN(C)C/C=C/C(=O)Nc1cc2c(Nc3ccc(F)c(Cl)c3)ncnc2cc1O[C@H]1CCOC1 [Afatinib]
[1]; Day 1
  Cmax: 27.0 ng/mL
[1]; Day 28
  Cmax: 36.6 ng/mL
[2]
  Cmax: 44.4 ng/mL

Where two headings read alike, the source gives them in different places.
